Biological target: T1, syntaxin 3 (aa 1-260), cytoplasmic domain (rat (Rattus norvegicus), UniProt Q08849 1-260)
T1 sequence (looked up): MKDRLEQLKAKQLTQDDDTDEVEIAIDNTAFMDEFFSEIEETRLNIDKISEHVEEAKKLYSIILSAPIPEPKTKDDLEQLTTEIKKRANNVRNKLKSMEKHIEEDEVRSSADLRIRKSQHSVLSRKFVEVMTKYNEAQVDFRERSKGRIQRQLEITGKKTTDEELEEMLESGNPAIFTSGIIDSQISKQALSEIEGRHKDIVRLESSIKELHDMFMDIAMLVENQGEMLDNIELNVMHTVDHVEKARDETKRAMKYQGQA
Assay: SDS-resistant complex on SDS-PAGE

binding result: binds
B1: synaptobrevin-2 (Syb2([…])), cytoplasmic domain (domain or fragment)
chain: not shown

Reference: paper doi:10.1101/2023.02.06.527244 (bioRxiv, 2023)
